The results in this text go back to ChEMBL document CHEMBL3393026, “A selective small molecule NOP (ORL-1 receptor) partial agonist for the treatment of anxiety” (Bioorg Med Chem Lett, 2015).

Structures are written as SMILES.

The target of one assay is Nociceptin receptor (Homo sapiens, UniProt P41146). The assay is described as follows: Displacement of [125I]-Tyr14-nociceptin from human ORL1 expressed in HEK293 cells after 2 hrs by scintillation counting.
For a further assay, the target named is Mu-type opioid receptor (Homo sapiens, UniProt P35372). The assay is described as follows: Displacement of [3H]DAMGO from human Mu opioid receptor expressed in HEK293 cells after 2 hrs by scintillation counting. In general terms: Loss of bound radioactivity is the signal in a displacement assay; it reports binding, not function.

With `COc1ccc(CCNC[C@@H](O)CN2CN(c3ccccc3)C3(CCN(CCc4ccccc4-c4cccs4)CC3)C2=O)cc1OC`, the values for the IC50 at Nociceptin receptor and on Mu-type opioid receptor were 3.9 nM and 79 nM, respectively.

`Cc1ccccc1CNC[C@@H](O)CN1CN(c2ccccc2)C2(CCN(CCc3ccccc3-c3cccs3)CC2)C1=O` registered an IC50 at Mu-type opioid receptor of 103 nM. This lies in the sub-micromolar range.

In the case of `COc1ccc(CCOC[C@H](O)CN2CN(c3ccc(F)cc3)C3(CCN(CC4CCCCCCC4)CC3)C2=O)cc1OC`, the IC50 on Mu-type opioid receptor is 2600 nM.

At Mu-type opioid receptor, `COc1ccc(CNC[C@@H](O)CN2CN(c3ccccc3)C3(CCN(CCc4ccccc4-c4cccs4)CC3)C2=O)cc1` had a concentration for half-maximal inhibition (IC50) of 110 nM.

For `O=C1N(C[C@H](O)CNCc2cccs2)CN(c2ccccc2)C12CCN(CCc1ccccc1-c1cccs1)CC2`, the IC50 on Nociceptin receptor is 8 nM; on Mu-type opioid receptor it was 80 nM.

On to `Cc1ccc(CN(C[C@H](O)CN2CN(c3ccc(F)cc3)C3(CCN(CC4CCCCCCC4)CC3)C2=O)C(=O)[C@H](N)C(C)C)cc1`, for which, on Nociceptin receptor, the IC50 worked out at 18 nM.

Turning to `O=C1N(C[C@@H](O)CNCc2cccs2)CN(c2ccccc2)C12CCN(CCc1ccccc1-c1cccs1)CC2`, the IC50 on Nociceptin receptor amounted to 160 nM; on Mu-type opioid receptor, 29 nM.

Take `Cc1ccccc1CNC[C@H](O)CN1CN(c2ccccc2)C2(CCN(CCc3ccccc3-c3cccs3)CC2)C1=O`: the IC50 on Mu-type opioid receptor was determined as 69 nM.

Usually IC50 stands for the concentration that gives 50% inhibition.
